Test results: paper PMC6804466 (Acta Pharmaceutica Sinica. B, 2019)

Target: T1, hOAT3 (Homo sapiens, UniProt Q8TCC7)
T1 sequence (Q8TCC7 1-542): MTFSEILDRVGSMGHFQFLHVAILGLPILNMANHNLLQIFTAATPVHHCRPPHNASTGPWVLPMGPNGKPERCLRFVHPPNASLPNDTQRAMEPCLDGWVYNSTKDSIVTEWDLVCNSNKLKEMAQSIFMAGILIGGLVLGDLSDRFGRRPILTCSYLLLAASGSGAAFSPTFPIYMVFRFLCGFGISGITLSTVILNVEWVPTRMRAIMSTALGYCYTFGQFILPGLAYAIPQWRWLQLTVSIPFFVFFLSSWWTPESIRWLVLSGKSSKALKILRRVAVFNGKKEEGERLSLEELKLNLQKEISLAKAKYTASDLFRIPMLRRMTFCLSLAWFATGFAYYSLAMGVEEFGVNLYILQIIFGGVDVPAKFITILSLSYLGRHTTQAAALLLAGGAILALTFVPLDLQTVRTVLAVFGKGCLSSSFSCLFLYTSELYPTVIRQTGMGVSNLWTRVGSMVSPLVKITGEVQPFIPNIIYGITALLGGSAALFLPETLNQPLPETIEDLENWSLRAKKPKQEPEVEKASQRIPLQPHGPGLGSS
Settings: 100 μmol/L, 10 min, with or without Prb 200 μmol/L

CC1(C)C[C@@H]1C(=O)N/C(=C\CCCCSC[C@H](N)C(=O)O)C(=O)O [Cil, cilastatin]
Substrate of hOAT3 (uptake vs Mock cells, inhibited by Prb): substrates of hOAT1 and hOAT3
